In paper PMC4234672, “β-Arrestin-Dependent Deactivation of Mouse Melanopsin” (PLoS ONE, 2014):

Molecular target: T1, mouse melanopsin-1D4 (mouse, UniProt Q9QXZ9-1 1-521)
T1 construct: Reconstituted in the cells with 20 µM 9-cis retinal; light exposure leads to phosphorylation of the C-tail in the cells; also called wildtype melanopsin-1D4
T1 sequence (looked up): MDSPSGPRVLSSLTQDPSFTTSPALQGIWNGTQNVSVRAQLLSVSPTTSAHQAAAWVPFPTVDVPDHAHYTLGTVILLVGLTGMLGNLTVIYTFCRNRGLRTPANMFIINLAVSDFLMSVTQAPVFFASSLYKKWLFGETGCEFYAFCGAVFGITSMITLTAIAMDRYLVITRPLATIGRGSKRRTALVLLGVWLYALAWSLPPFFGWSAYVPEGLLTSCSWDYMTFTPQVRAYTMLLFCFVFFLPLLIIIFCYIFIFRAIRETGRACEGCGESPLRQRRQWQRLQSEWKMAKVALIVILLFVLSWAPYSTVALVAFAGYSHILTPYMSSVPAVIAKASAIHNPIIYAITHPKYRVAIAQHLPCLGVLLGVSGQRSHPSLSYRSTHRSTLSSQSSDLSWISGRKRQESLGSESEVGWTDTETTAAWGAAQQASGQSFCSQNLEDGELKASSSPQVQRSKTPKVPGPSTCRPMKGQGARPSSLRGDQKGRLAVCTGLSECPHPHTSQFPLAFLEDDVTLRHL
Assay: cross-linking + co-IP; β-arrestin stable HEK293 lines transfected with melanopsin-1D4 or phosphonull-1D4; 20 µM 9-cis retinal 1 h in the dark; light-exposed (bright white light, 30 min, 20°C) or dark-adapted; DSP cross-linking in the cells; solubilised in PBS with 1% dodecyl maltoside; 1D4 sepharose beads overnight 4°C; eluted with 50 mM DTT; blots for β-arrestin 1 and β-arrestin 2
Conditions: partners not purified

B1: rat β-arrestin 1 (natural protein, UniProt P29066 1-418, looked up)
chain: MGDKGTRVFKKASPNGKLTVYLGKRDFVDHIDLVDPVDGVVLVDPEYLKERRVYVTLTCAFRYGREDLDVLGLTFRKDLFVANVQSFPPAPEDKKPLTRLQERLIKKLGEHAYPFTFEIPPNLPCSVTLQPGPEDTGKACGVDYEVKAFCAENLEEKIHKRNSVRLVIRKVQYAPERPGPQPTAETTRQFLMSDKPLHLEASLDKEIYYHGEPISVNVHVTNNTNKTVKKIKISVRQYADICLFNTAQYKCPVAMEEADDTVAPSSTFCKVYTLTPFLANNREKRGLALDGKLKHEDTNLASSTLLREGANREILGIIVSYKVKVKLVVSRGGLLGDLASSDVAVELPFTLMHPKPKEEPPHREVPESETPVDTNLIELDTNDDDIVFEDFARQRLKGMKDDKDEEDDGTGSPHLNNR
notes: also called β-arr1; arrestin 2
fold increase in co-precipitation, light-exposed against dark sample: 6 fold
fold increase in co-precipitation, light-exposed wildtype against light-exposed phosphonull melanopsin: 5 fold
